# US6121055A, “Methods and devices for conducting specific binding assays” (priority 1995, dated 2000)
# Tested on: TSH antibody (commercial RIA kit)
# Experiment: Competitive RIA for thyroid stimulating hormone (TSH), standard and adapted
# Assay type: binding
# Experimental: A commercial 125-iodine RIA kit for determining TSH was obtained from American Bioclinical (Portland, Oreg.) and adapted to the separation and detection methods of the present invention. All assay reactants were used according to the manufacturer's instructions except that reactant volumes were decreased four-fold, and S. aureus (25 L of a 10% w/v suspension per test) was substituted for the "second antibody" precipitating solution. The adapted test was performed using 0.4 mL microcentrifuge tubes containing 0.25 mL butyl phthalate cushions.
substance,measurement,setting,value
TSH: thyroid stimulating hormone standards of a commercial RIA kit,% BOUND,"adapted test, 33 OU/mL in RIA, 2 hours 37 C",7.2%
same,% BOUND,"standard test, 25 OU/mL in RIA, 4 hours room temperature",15.2%
same,% BOUND,"standard test, 33 OU/mL in RIA, 4 hours room temperature",12.0%
same,% BOUND,"standard test, 50 OU/mL in RIA, 4 hours room temperature",7.9%
